Experimental data published in PMC3660741, “Structure of a pore-blocking toxin in complex with a eukaryotic voltage-dependent K^+ channel” (eLife, 2013).

Chains of the proteins cited; added tags and fusions are not shown. A line that says so, or that is headed by a name, gives the form on record, which may keep a tag or linker.
UniProt P63142, with tags, fused parts or gaps with the stated changes: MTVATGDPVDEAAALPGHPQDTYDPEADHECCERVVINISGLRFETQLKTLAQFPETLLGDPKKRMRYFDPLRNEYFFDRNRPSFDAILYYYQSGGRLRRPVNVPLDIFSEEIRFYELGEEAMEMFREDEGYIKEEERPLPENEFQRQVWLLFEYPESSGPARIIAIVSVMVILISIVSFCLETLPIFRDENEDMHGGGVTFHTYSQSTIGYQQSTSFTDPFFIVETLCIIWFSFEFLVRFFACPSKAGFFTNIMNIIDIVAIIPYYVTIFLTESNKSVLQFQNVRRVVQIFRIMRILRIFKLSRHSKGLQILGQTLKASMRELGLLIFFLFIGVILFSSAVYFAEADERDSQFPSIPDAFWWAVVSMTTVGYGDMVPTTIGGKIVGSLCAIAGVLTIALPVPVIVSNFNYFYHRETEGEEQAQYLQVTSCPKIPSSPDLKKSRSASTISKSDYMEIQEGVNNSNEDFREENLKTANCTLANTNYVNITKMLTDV

Target: T1, Kv2.1 paddle–Kv1.2 chimera channel (paddle chimera) (Rattus norvegicus, UniProt P63142, DEL270-295/F267Y/F302L/I268V/INS296FLTESNKSVLQFQNVRRVVQIF/L298I/N207Q/V299M/V301I)
T1 construct: made in house; host or cells: Pichia pastoris
Assay: CTX inhibition of paddle chimera in planar lipid bilayer, dose-response fitted for Kd
Type: biochemical
Settings: KCl on both sides; planar bilayer of 20 mg/ml DPhPC; holding −110 mV, depolarized to +110 mV; fit I/Imax = 0.1 + 0.9 × (1 + [CTX]/Kd)^−1; n = 2–4; read-out: affinity (Kd) for inhibition of paddle chimera

Question: `CSCC[C@@H]1NC(=O)CNC(=O)[C@H](CCCNC(=N)N)NC(=O)[C@H](CO)NC(=O)[C@H]([C@@H](C)O)NC(=O)[C@H](CC(N)=O)NC(=O)[C@H](Cc2c[nH]cn2)NC(=O)[C@H](CC(C)C)NC(=O)[C@H](CCCNC(=N)N)NC(=O)[C@H](CCC(N)=O)NC(=O)[C@@H]2CSSC[C@@H](C(=O)N[C@@H](Cc3ccc(O)cc3)C(=O)N[C@@H](CO)C(=O)O)NC(=O)[C@H](CCCNC(=N)N)NC(=O)[C@@H]3CSSC[C@H](NC(=O)[C@H](CCC(=O)O)NC(=O)[C@H](CCCCN)NC(=O)[C@H](CO)NC(=O)[C@H]([C@@H](C)O)NC(=O)[C@H]([C@@H](C)O)NC(=O)[C@@H](NC(=O)[C@H](CO)NC(=O)[C@@H](NC(=O)[C@H](CC(N)=O)NC(=O)[C@@H](NC(=O)[C@H](Cc4ccccc4)NC(=O)[C@@H]4CCC(=O)N4)[C@@H](C)O)C(C)C)CSSC[C@H](NC1=O)C(=O)N[C@@H](CCSC)C(=O)N[C@@H](CC(N)=O)C(=O)N[C@@H](CCCCN)C(=O)N[C@@H](CCCCN)C(=O)N3)C(=O)N[C@@H](Cc1c[nH]c3ccccc13)C(=O)N[C@@H](CO)C(=O)N[C@@H](C(C)C)C(=O)N2` [Lys27Met CTX] was tested. Which Kd did it give?
Answer: ~630 nM
